The chains behind the UniProt entries cited, without tags or fusion partners. Where a name states a change or a piece, a line headed by the entry shows the natural chain unless it says otherwise.
UniProt Q63120: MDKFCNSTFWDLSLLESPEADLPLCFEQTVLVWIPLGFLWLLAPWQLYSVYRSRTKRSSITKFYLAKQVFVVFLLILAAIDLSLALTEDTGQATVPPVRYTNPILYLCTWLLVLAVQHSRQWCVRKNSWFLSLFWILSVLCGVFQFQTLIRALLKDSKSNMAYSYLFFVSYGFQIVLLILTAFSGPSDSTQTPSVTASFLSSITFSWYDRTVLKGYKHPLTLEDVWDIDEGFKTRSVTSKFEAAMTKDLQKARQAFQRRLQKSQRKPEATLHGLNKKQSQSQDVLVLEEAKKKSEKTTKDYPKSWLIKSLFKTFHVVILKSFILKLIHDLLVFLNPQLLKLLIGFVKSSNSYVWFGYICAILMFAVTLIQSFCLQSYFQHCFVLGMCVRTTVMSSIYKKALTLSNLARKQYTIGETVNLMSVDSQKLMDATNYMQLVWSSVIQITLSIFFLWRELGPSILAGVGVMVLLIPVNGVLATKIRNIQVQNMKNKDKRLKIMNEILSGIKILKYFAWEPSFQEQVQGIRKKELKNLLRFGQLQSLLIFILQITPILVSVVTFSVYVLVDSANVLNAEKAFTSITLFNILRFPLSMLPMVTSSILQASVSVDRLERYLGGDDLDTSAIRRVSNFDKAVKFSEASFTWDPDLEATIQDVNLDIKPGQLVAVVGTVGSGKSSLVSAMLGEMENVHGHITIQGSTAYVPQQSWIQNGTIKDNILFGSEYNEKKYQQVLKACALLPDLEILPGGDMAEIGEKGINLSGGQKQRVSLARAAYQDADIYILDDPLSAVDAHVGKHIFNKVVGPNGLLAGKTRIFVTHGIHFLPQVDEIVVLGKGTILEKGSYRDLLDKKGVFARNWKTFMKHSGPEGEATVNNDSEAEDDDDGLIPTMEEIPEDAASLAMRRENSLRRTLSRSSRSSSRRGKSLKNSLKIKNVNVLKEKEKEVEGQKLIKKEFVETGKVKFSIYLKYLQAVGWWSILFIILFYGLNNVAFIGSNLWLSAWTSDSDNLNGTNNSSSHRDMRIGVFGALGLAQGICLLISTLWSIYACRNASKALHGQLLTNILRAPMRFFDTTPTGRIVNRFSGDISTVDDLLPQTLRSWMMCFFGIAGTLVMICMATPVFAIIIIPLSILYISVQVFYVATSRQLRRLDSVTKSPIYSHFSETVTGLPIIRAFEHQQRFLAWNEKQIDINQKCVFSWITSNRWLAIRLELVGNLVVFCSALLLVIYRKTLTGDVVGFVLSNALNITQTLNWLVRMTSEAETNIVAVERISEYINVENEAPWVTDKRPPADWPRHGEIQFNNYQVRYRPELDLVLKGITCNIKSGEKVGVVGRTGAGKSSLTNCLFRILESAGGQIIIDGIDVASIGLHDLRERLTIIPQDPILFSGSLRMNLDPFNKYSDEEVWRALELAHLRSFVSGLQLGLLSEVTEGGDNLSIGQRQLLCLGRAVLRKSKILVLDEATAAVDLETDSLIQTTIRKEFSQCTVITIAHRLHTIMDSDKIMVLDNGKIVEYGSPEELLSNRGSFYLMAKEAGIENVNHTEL

According to publication PMC6161027, “In Vitro Stimulation of Multidrug Resistance-Associated Protein 2 Function Is Not Reproduced In Vivo in Rats” (Pharmaceutics, 2018):

Key:
human MRP2 = settings: result in words ref 10; cited from earlier work
rat Mrp2 = rat Mrp2 (Rattus norvegicus, UniProt Q63120); settings: CP-I 5 µM, 15 min, result in words

Structure (SMILES): C[C@]12CC[C@H]3[C@@H](CCC4=CC(=O)CC[C@@]43C)[C@@H]1CC[C@@H]2O [testosterone]
- stimulation of CP-I transport in human MRP2 vesicles (human MRP2): significant stimulation
- effect on rat Mrp2-mediated CP-I transport in vitro (rat Mrp2): stimulated
